Publication PMC10477481 (The Journal of Biological Chemistry, 2023)

Target: neuropilin 1 isoform b, recombinant, C-terminal His tag (Sino Biological 10011-H08H) (human) (UniProt O14786)
Assay: flow cytometry of protein-coated microbeads (Ig-coated bead test)

vascular endothelial growth factor A165, His-tagged, dimer form (ligand)
IC50: 410 nM
